# Ab-14 heavy chain CDR variants: yeast mating affinities

Source: Li et al. 2023 (doi:10.1038/s41467-023-39022-2), MIT Lincoln Laboratory and A-Alpha Bio; data file from the FLAb repository.

Target: peptide PDVDLGDISGINAS, taken from heptad repeat 2 (HR2) of SARS-CoV-2 spike.

The variants keep the light chain, the linker and the frameworks of Ab-14 (scFv order VH, three GGGGS repeats, VL).
VH: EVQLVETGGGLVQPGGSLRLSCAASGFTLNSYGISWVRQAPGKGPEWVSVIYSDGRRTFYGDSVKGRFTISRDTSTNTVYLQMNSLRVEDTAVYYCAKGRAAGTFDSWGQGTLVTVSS
VL: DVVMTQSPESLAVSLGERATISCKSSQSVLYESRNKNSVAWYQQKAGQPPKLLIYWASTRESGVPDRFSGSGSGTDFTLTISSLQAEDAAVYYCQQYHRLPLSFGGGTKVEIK

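Phage display of a naive human antibody library on the peptide gave the parent. This is the validation round: designs drawn from the data on random variants, tested in the same kind of assay. Several design methods are mixed in this list. In AlphaSeq, yeast of one mating type display the scFv and yeast of the other type display the target. After mating in shaken culture at 30 °C for 16 h, diploids were selected and their barcode pairs sequenced. A regression on co-assayed BCL2-family reference pairs converts the normalised counts of each replicate to an apparent Kd. The assay was run in six technical replicates.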

Each variant is given by its three heavy chain CDRs, as the data file delimits them; those of the parent are GFTLNSYGIS, VIYSDGRRTFYGDSVK, GRAAGTFDS. The read-out is the apparent dissociation constant on a log10 scale (nM): the lower, the stronger. Replicates are averaged; those with no signal do not enter the mean. "nd" means that the variant was in the library but no mating with the target was seen in that replicate; the authors take this as a sign of poor binding, and no number exists. Three control strains display no target. For all heavy chain designs, 1% of the pairings with them gave a signal, with a median of 2.08 and one signal in twenty below 0.84, so weak values seen in few replicates may be background. Values of this round are not directly comparable with the first-round values of the same sequences. The authors' rule: three or more of the six replicates give a measured affinity, fewer mean a poor binder. The parent sequence was in this pool as ten entries: three were never detected, three once, and four in most replicates, with averages from 0.34 to 2.37.

Read-out 1.26, 0.33, 0.78, 0.08, 0.09, 0.73 (mean 0.54), from GFTLNDYGIS | VIYSDGRRTFYGDSVK | GRAAGTFDT.
Read-out -0.11, -0.17, 0.29, -0.41, -0.30, 0.50 (mean -0.03), from GFDLDEYGIS | VIYADGVRTAYADSVK | GQVAGTFDV.
Read-out -0.01, 0.00, -0.14, -0.45, -0.38, -0.06 (mean -0.17), from GFDLNEYGIS | VIYADGRRTAYADDVK | GETAGTFDI.
Read-out -0.14, -0.21, -0.27, -0.29, -0.30, -0.03 (mean -0.21), from GFDLNEYGIS | VIYADGMRTAYIDNVK | GNVAGTFDV.
Read-out nd, nd, nd, nd, nd, nd, from GFDLKEYGIS | VIYADGSRTAYSKNFK | GEFDGMVLV.
Read-out nd, nd, nd, nd, nd, nd, from GFTLNSYGIS | VIYSDGRRTSYGDSVK | GRAAGTIDS.
Read-out nd, nd, nd, nd, nd, nd, from GFTLESYGIS | VIYADGRRTFYGDIVK | GRAAGTFKS.
Read-out nd, nd, nd, nd, nd, nd, from GFTLNDYGIS | VIYSDGRRTFYMDSVK | GRTAGTFIS.
Read-out 0.98, 1.10, 1.41, 2.06, 1.98, 1.02 (mean 1.42), from GFSLNSYGIS | VIYSDGRRTFYGDNVK | GRIAGTFDS.
Read-out nd, nd, nd, nd, nd, nd, from GFTLNSYGIS | VIYSDGRRTFYEDSVK | GRVAGQFDH.
Read-out nd, nd, nd, nd, nd, nd, from GFTLNEYGIS | VDYSDGRRTFYGDSVA | RRCAGTFDS.
Read-out nd, nd, nd, nd, nd, nd, from GFDLNEYGIS | VIYADGMRTAYSDSVK | GQNAGTFDM.
Read-out 0.28, 1.06, 0.27, 0.52, 0.16, 0.74 (mean 0.51), from GFNLNEYGIS | VIYADGRRTFYADSVK | GQVAGTFIM.
Read-out nd, nd, nd, nd, nd, nd, from GFGLNSYGIS | VIYSDGKRTFYGDSVK | GRAAGTFDS.
Read-out nd, nd, nd, nd, nd, nd, from GFTLNSYGIS | VIYADGRRTFHHDSVK | GRAAGTNKS.
Read-out 1.11, 0.71, 1.01, 0.88, 0.46, 1.05 (mean 0.87), from GFNLNSYGIS | VIYSDGRRTFYKDSVK | GEAAGTFDS.
Read-out nd, 0.90, 0.98, 0.69, 0.00, 0.82 (mean 0.68), from GFDLNNYGIS | VIYSDGRRTFYADSVK | GRAAGTFDS.
Read-out -0.05, 0.06, -0.07, -0.26, 0.14, -0.28 (mean -0.08), from GFDLDEYGIS | VIYADGKRTAYADSVK | GNVAGTFDE.
Read-out nd, nd, nd, nd, nd, nd, from GFDIEEYGIS | VIYADGYRTAYKQKVK | GQIAGGQFD.
Read-out nd, nd, nd, nd, nd, nd, from GKSLDEYGIS | VIYADGLRKEYTDSVK | GQFDDAMDL.
Read-out 0.14, 0.00, 0.17, 0.46, 0.47, -0.17 (mean 0.18), from GFSLNSYGIS | VIYSDGRRTFYADSVK | GRMAGTFDT.
Read-out nd, 1.41, nd, 1.29, 0.78, nd (mean 1.16), from GFQLESYGIS | VIYSDGRRTFYGDQVK | GRTAGTFDS.
Read-out -0.24, -0.39, -0.50, -0.15, 0.10, -0.35 (mean -0.25), from GFDLNEYGIS | VIYADGVRTAYSDSVK | GSNAGTFDI.
Read-out nd, nd, nd, nd, nd, nd, from GFTLNEYGIS | VISSDTRRTFYTDSVK | GRFSGTFDS.
Read-out 1.19, 0.80, 0.83, -0.07, 0.46, 0.50 (mean 0.62), from GFSLNSYGIS | VIYSDGRRTFYADSVK | GEAAGTFDA.
Read-out 0.45, -0.12, 0.09, -0.03, -0.05, 0.03 (mean 0.06), from GFDINEYGIS | VIYADGRRTFYSDSVK | GGNAGTFDS.
Read-out 0.86, 1.35, 1.20, 1.94, 1.87, 0.71 (mean 1.32), from GFSLNSYGIS | VIYSDGRRTFYSDSVK | GQDAGTFDS.
Read-out -0.11, 0.19, -0.37, -0.63, -0.72, -0.55 (mean -0.36), from GFDLNEYGIS | VIYADGRRTSYKDSVK | GEVAGTFNV.
Read-out 1.35, 1.68, 2.38, 1.92, 2.78, 2.31 (mean 2.07), from GFTLDSYGIS | VIYSDGRRTFYGDSVK | GHAAGTFDR.
Read-out nd, nd, nd, nd, nd, nd, from GFQLNEYGIS | VIYADGIRREYADKVK | GGINASFGV.
Read-out -0.21, 0.32, -0.22, -0.28, -0.18, 0.15 (mean -0.07), from GFDINEYGIS | VIYADGRRTFYADSVK | GNVGGTFDL.
Read-out 1.23, nd, nd, nd, nd, nd, from GFTLNSYGIS | VIYSDGRRTSYGDSVV | GRLAGTFDS.

Excerpt, the first 2 entries:

CDR-H1	CDR-H2	CDR-H3	replicates, log10 nM	mean log10 Kd (nM)
GFTLNDYGIS	VIYSDGRRTFYGDSVK	GRAAGTFDT	1.26, 0.33, 0.78, 0.08, 0.09, 0.73	0.54
GFDLDEYGIS	VIYADGVRTAYADSVK	GQVAGTFDV	-0.11, -0.17, 0.29, -0.41, -0.30, 0.50	-0.03